Target: T1, Alpha-1A adrenergic receptor (Homo sapiens, UniProt P35348)
T1 sequence (P35348 whole entry): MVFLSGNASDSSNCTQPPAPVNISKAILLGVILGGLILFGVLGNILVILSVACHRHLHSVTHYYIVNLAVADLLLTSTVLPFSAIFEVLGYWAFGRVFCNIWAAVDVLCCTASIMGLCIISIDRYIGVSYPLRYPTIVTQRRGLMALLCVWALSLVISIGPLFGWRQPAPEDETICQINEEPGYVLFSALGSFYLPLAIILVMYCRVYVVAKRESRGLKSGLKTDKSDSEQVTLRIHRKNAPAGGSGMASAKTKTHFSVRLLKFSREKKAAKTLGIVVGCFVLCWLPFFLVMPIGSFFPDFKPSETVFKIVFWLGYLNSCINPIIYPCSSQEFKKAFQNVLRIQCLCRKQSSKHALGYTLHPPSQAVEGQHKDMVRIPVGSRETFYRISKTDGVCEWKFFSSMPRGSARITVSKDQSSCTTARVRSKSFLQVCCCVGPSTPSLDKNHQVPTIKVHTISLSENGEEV
Assay: Binding affinity was tested on human Alpha-1A adrenergic receptor

**Q.** For COc1ccccc1N1CCN(CCN2C(=O)CC3(CCCC3)CC2=O)CC1, which Ki is on record?
**A.** 251 nM

— ChEMBL document CHEMBL1129998, “Pharmacological options in the treatment of benign prostatic hyperplasia” (J Med Chem, 1997)
